According to ChEMBL document CHEMBL5325439, “Application of an "inhalation by design" approach to the identification and in-vitro evaluation of novel purine based PI3Kδ inhibitors” (Eur J Med Chem, 2023):

Test system: HepG2
Experiment: Cytotoxicity against human HepG2 cells assessed as reduction in cell viability at 10 to 30 uM incubated for 48 hrs by celltiter-glo assay
Type: functional, cell-based
Details: dose 10-30 µM

SMILES: CC/C(=C(\c1ccccc1)c1ccc(OCCN(C)C)cc1)c1ccccc1
- Activity: Active

Calls of active or inactive are those of the source. The calls are words filed in the database; no cut-off is given here.
